The nature of this assay: Vasodilatory effect in pig pulmonary artery assessed as inhibition of PGF2-alpha-induced contraction. Type of assay: functional, tissue-based. The settings on record: Sus scrofa. The method in brief:
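Porcine lungs from slaughterhouse; small pulmonary artery branches cut into rings (2–3 mm long, 1.5–2 mm diameter), tension measured in organ baths. Rings precontracted with PGF2α; test compounds added cumulatively at contraction plateau (up to 1 mM), DMSO as solvent. Endothelium checked by 10 nM bradykinin relaxation; denuded rings by gentle rubbing, pretreated with 0.2 mM L-NAME. Potency expressed as pD2.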

For the compound `CC(C)O[N+](=O)[O-]`, the pD2 is 3.36.

The values above are taken from ChEMBL document CHEMBL1140479, “NO donors. Part 16: investigations on structure-activity relationships of organic mononitrates reveal 2-nitrooxyethylammoniumnitrate as a high potent vasodilator” (Bioorg Med Chem Lett, 2007).
